## Measured affinities in a library of Ab-14 light chain variants

From the AlphaSeq antibody data of Li et al. 2023 (doi:10.1038/s41467-023-39022-2), copy in the FLAb collection.

Binding partner: SARS-CoV-2 spike HR2 peptide, sequence PDVDLGDISGINAS.

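The parent was found by panning a naive human phage display library on the peptide. The variants were designed computationally from a first round of random CDR variants and then made and measured. Group labels follow the data file (En: ensemble of fine-tuned language models; GP: Gaussian process model; HC: hill climbing; Gen: genetic algorithm; Gibbs: Gibbs sampling; a sequence that several methods proposed may carry one label only). AlphaSeq pools MATa yeast showing the antibodies with MATalpha yeast showing the peptide. Mating (16 h, 30 °C) was followed by selection of diploids and sequencing of their barcodes. A regression on co-assayed BCL2-family reference pairs converts the normalised counts of each replicate to an apparent Kd. Each pool was mated in six replicate cultures.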

Ab-14 is the parent antibody, in scFv form: VH, then the linker GGGGSGGGGSGGGGS, then VL. The heavy chain is unchanged in all variants.
VH: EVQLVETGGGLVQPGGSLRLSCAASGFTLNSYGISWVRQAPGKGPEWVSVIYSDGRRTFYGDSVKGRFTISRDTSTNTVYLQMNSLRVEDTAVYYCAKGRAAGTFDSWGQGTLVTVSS
VL: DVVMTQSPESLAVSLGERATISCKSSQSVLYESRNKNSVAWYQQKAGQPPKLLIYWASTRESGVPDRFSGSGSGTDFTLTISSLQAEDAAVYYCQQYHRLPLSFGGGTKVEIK

Each variant is given by its three light chain CDRs, as the data file delimits them; those of the parent are KSSQSVLYESRNKNSVA, WASTRES, QQYHRLPLS. This list holds designs with more than six substitutions. Numbers give log10(Kd / nM), so 0 is 1 nM and 3 is 1 µM. Smaller is tighter. Replicates are averaged; those with no signal do not enter the mean. An entry "nd" has no value in the source: the pair was not observed among the diploids in that replicate. This suggests poor binding but is not conclusive.

- KLMGSVLYESRMKNAVA | GASQREK | QQYHRLPLS [GP_Gibbs]: -0.03, -0.21, -0.19, -0.15, 0.03, 0.05 (mean -0.08)
- KISQSQLYEDRNTKSVA | NASTRCS | QQYHRLPLS [GP_Gibbs]: 0.04, 0.05, -0.16, -0.02, 0.23, -0.01 (mean 0.02)
- KAQQSELYGERNSNSVA | HASLRES | QQYHRLPLS [GP_Gibbs]: 0.53, 0.55, 0.48, 0.29, 0.53, 0.48 (mean 0.47)
- KLGYNTGTESFRDDNIA | DVRERDE | QQYHRLPLS [En_Gen]: 0.84, 0.71, 0.47, 0.69, 1.25, 0.91 (mean 0.81)
- HISYSMAHLSKNKNSVA | NQQTRET | QQYHRLPLS [En_HC]: 1.12, 0.97, 1.34, 0.87, 1.06, 1.31 (mean 1.11)
- MISQIYNMGQFAINSVA | QASIRNA | QQYDRLPLA [En_Gen]: 0.89, 0.71, 0.42, 0.37, 0.78, 0.86 (mean 0.67)
- MFSQLIMYGSRNYNSVA | QASTRES | QQYDRLPLI [En_HC]: nd, 1.10, 1.40, nd, 2.20, nd (mean 1.57)
- HVGQTRQADISNKKSVA | EGEVLID | QQYGRLPFS [En_Gibbs]: 0.48, 0.23, 0.19, 0.18, 0.30, 0.32 (mean 0.28)
- HVSSMLMAGGGIYNSIA | GTKVLER | QQYMRLPLM [En_Gibbs]: 0.67, 0.33, 0.30, 0.24, 0.55, -0.01 (mean 0.35)
- KLNSDSVLQWNINNSVA | EMSEVIQ | QQYVHLPLM [En_Gibbs]: nd, nd, 1.28, nd, 1.34, 1.99 (mean 1.54)
- KFSQMVNSMSVSHSAVA | EMSTREN | QQYNRLPLS [En_Gen]: 0.53, 0.33, 0.17, -0.08, 0.44, 0.40 (mean 0.30)
- KLGQSVAMTSRNTNNVA | DLNERER | QQYHRLPLS [En_HC]: 0.14, -0.20, -0.08, 0.12, -0.24, -0.06 (mean -0.05)
- KISQMTRVGMTHSNSIA | EEVVRAK | QQYHRLPLA [En_Gen]: 1.39, 2.09, nd, 1.03, 0.41, 1.06 (mean 1.20)
- KLLQVTENMSLNRNSVA | HMSTRED | QQYHHLPLS [En_HC]: 0.41, 0.37, 0.69, 0.52, 0.62, 0.88 (mean 0.58)
- KMSQSVPYEERNLNNVA | DGSTRES | QQYHRLPLS [GP_Gibbs]: -0.19, -0.30, -0.22, -0.42, -0.38, -0.33 (mean -0.31)
- MMSMGYLGGMRAKNNVA | QESTREE | QQYHRLPLI [En_HC]: 1.01, 0.55, 0.60, 1.16, 0.70, 0.57 (mean 0.77)
- KFGQSVLMGSYVRNSVA | QTSTREN | QQYDRLPLS [En_HC]: 1.74, 2.28, 1.39, 1.37, 1.58, 1.71 (mean 1.68)
- MMSQVTGLGTRHRNNVA | QTSTREP | QQYDRLPLV [En_Gen]: 1.12, 0.57, 0.93, 0.69, 0.95, 0.79 (mean 0.84)
- MISQLYNMGQFAINSVA | QASERNA | QQYDRLPLF [En_Gen]: nd, 1.83, 0.95, nd, 2.63, nd (mean 1.80)
- MLSQMWALGMKAKNSVA | QAQMRFN | QQYERLPLI [En_Gen]: nd, nd, nd, nd, nd, nd
- KISMSYRYESQAKNSIA | EMSRREN | QQYHRLPLS [En_HC]: 0.83, 0.45, 0.77, 0.11, 0.22, 0.37 (mean 0.46)
- KVSFSVMLESRNKNAVA | SASTRES | QDYHRLPLS [GP_Gibbs]: 0.24, 0.21, 0.23, 0.16, 0.15, 0.32 (mean 0.22)
- HMSMLTLQGMYHRNSVA | QMTTREN | QQYDRLPLS [En_Gen]: 0.95, 1.14, 0.88, 1.01, 0.95, 0.94 (mean 0.98)
- QLGWVQSGDTLSQGAIA | HAAELVD | QQYFRLPLL [En_Gibbs]: 0.58, 0.85, 1.12, 0.71, 0.69, 0.72 (mean 0.78)
- KLQMMVEMEQRNPNSVA | SASTRLS | QQYHRLPLS [GP_Gibbs]: 0.16, -0.07, 0.08, -0.29, -0.12, 0.01 (mean -0.04)
- RLSVNLDAGNISTNAIA | EGKSLEQ | QQYMRLPLG [En_Gibbs]: nd, nd, 0.68, -0.86, nd, 0.45 (mean 0.09)
- MMSQLFMYGSRNYNSVA | QASTRES | QQYDRLPLI [En_HC]: 1.96, 1.33, 1.66, 2.10, 0.90, 1.68 (mean 1.60)
- KQSQSTLYESGMKNSVA | NASKRMS | QQYHRLPLS [GP_Gibbs]: 0.68, 0.67, 0.54, 0.41, 0.89, 1.01 (mean 0.70)
- MISQLYNMGQFAINSVA | QAETRNE | QQYDRLPLE [En_Gen]: 0.46, 0.94, 0.08, 0.60, 0.79, 0.93 (mean 0.63)
- KLMEGWLYESRNKNSVA | NASKRLE | QQYHRLPLS [GP_Gibbs]: 0.15, 0.00, 0.02, -0.04, 0.06, 0.03 (mean 0.04)
- KASPSMEYESRNKQSVA | HASLRLE | QQYHRLPLS [GP_Gibbs]: 0.90, 0.89, 0.74, 1.01, 0.84, 0.90 (mean 0.88)
- HMSALSLMGSRNRNSVA | QMTTREN | QQYDRLPLI [En_Gen]: 0.73, 0.70, 0.79, 1.06, 0.59, 1.13 (mean 0.83)
- IIDAIMFHGNKRANSIA | QASERVN | QQYHHLPLT [En_Gen]: 0.65, 0.64, 0.47, 0.54, 0.80, 0.72 (mean 0.64)
- YLSINEVSDSYNVSRVA | EAETSVA | QQYHHLPLI [En_Gibbs]: 1.71, 1.64, 1.30, 1.31, 1.39, 1.51 (mean 1.48)
- KVSQSVLMLQRNKNSVA | DNSTSGS | QQYHRLPLS [En_HC]: 3.42, 2.45, 2.83, nd, 1.98, nd (mean 2.67)
- KQSQSQGGWQRNKNSVA | EASTREM | QQYHRLPLS [GP_Gibbs]: 0.40, -0.14, -0.05, 0.19, 0.09, 0.55 (mean 0.18)
- KIYYHEVGLVNGQNSIA | EQDQLTF | QQYSHLPLS [En_Gibbs]: 0.85, nd, nd, nd, nd, nd
- TISQMTSLFSQSINNVA | EVSTREE | QQYDRLPLV [En_Gen]: 0.73, 0.82, 0.41, 0.75, 0.71, 1.00 (mean 0.74)
- KIQDNLGTLMEQINSVA | SSEEKSD | QSYFRLPLI [En_Gibbs]: 0.85, 0.73, 1.42, 0.64, 0.82, 1.91 (mean 1.06)
- ILSQSVLMGSHLKNSVA | QASTRFA | QQYHRLPLS [En_HC]: 0.70, 0.79, 0.47, 0.44, 0.78, 0.53 (mean 0.62)
- KVGAYPQGVEQDMQNVA | EGSYAST | QQYHRLPLS [En_Gibbs]: 1.30, 1.25, 0.94, 0.35, 1.08, 1.89 (mean 1.14)
- KITATMRFEQKQSNNIA | EVTTRSK | QQYYRLPLA [En_Gen]: 1.13, 1.19, 0.90, 0.50, 0.89, 1.13 (mean 0.96)

A selection of 5 entries from above:

CDR-L1,CDR-L2,CDR-L3,group,"log10 Kd, replicates","mean, log10 nM"
KIQDNLGTLMEQINSVA,SSEEKSD,QSYFRLPLI,En_Gibbs,"0.85, 0.73, 1.42, 0.64, 0.82, 1.91",1.06
RLSVNLDAGNISTNAIA,EGKSLEQ,QQYMRLPLG,En_Gibbs,"nd, nd, 0.68, -0.86, nd, 0.45",0.09
TISQMTSLFSQSINNVA,EVSTREE,QQYDRLPLV,En_Gen,"0.73, 0.82, 0.41, 0.75, 0.71, 1.00",0.74
MISQIYNMGQFAINSVA,QASIRNA,QQYDRLPLA,En_Gen,"0.89, 0.71, 0.42, 0.37, 0.78, 0.86",0.67
MMSQLFMYGSRNYNSVA,QASTRES,QQYDRLPLI,En_HC,"1.96, 1.33, 1.66, 2.10, 0.90, 1.68",1.60

In the paper, a design with two or fewer of six values counts as a poor binder. The parent sequence was in this pool as ten entries: three were never detected, three once, and four in most replicates, with averages from 0.34 to 2.37. Empty control strains, which show no peptide, gave a signal in 4% of pairings with all light chain designs; the median was 2.64 and 95% of these signals were weaker than 1.59. No background was subtracted. Values of this round are not directly comparable with the first-round values of the same sequences.